# Reference: EP4098274A1
# Columns and labels:
# [1] = biological target: cation-independent mannose-6-phosphate receptor (CIMPR); test: CIMPR affinity chromatography of different production batches
# [2] = biological target: cation-independent mannose-6-phosphate receptor (CIMPR); test: M6P receptor (CIMPR) plate binding assay, bound rhGAA read by GAA activity
# [3] = biological target: cation-independent mannose-6-phosphate receptor (CIMPR); test: CIMPR affinity chromatography, elution with free M6P gradient, fractions read by GAA activity (4MU-α-glucose)
Substance,percent CIMPR receptor binding [1] [%],Kd [2] [nM],"percent of rhGAA bound (contained M6P, eluted with M6P) [3] [%]",percent of rhGAA that did not bind [3] [%]
ATB200 rhGAA (recombinant human acid α-glucosidase expressed in CHO cell line GA-ATB-200) (from UniProt P10253 57-952) (enzyme),70,2 to 4,,
"Lumizyme® (alglucosidase alfa, conventional rhGAA, Genzyme) (from UniProt P10253 57-952)",,,22,78
"Myozyme® (alglucosidase alfa, conventional rhGAA, Genzyme) (from UniProt P10253 57-952)",,,27,73
